From patent publication US20250234824A1, “MARKERS ASSOCIATED WITH S[…]” (Syngenta Crop Protection AG, priority 2022, published 2025)

Tested on: maize haploids
Test: Colchicine doubling treatment of BC3 haploids, pollen and kernel phenotypes in the field
Format: in vivo
Conditions: BC3 recurrent parent Line 10; SCD Allele; colchicine-treated haploids
Text: To test whether the SCD-QTL1 could be used in combination with a chemical doubling treatment, such as colchicine, and have an additive effect on haploid male fertility, we took the 17 elite BC2 lines from Example 6 through one additional backcross generation to produce a BC3. Genotyping was used to identify heterozygotes at SCD-QTL1, and those materials were then crossed by a haploid inducer, embryos isolated from the immature ears, and haploids regenerated for transplant into the field. Immediately after isolation, embryos from each of the 17 BC3 populations were split into 2 treatment groups. […] Thus, there were 4 treatment groups to compare within each elite BC3 population: (1) SCD-QTL1 with colchicine (haploid male fertility plus colchicine), (2) unfavorable QTL allele with colchicine (positive control), (3) SCD-QTL1 without colchicine (haploid male fertility alone), (4) and unfavorable QTL allele without colchicine (negative control). All lines were planted across three replications of the trial over the course of approximately 6 months, and the data was pooled for analysis.
In this trial, sample sizes were large enough (minimum of 50 haploids per treatment group) to enable statistical analysis to confirm whether observed differences in kernel set between groups with and without the favorable allele of SCD-QTL1 were statistically significant using a Student's T-Test (Table 8). […]

COc1cc2c(c(OC)c1OC)-c1ccc(OC)c(=O)cc1[C@@H](NC(C)=O)CC2 [Colchicine, colchicine]
Percent of Plants with Ears >5 kernels: 34.2%
